Results taken from patent US20100280040A1 (KAOHSIUNG MEDICAL UNIVERSITY, priority 2009, published 2010).

Experiment: Solubility test

Cn1c(=O)c2c(ncn2CCN2CCN(c3ccccc3Cl)CC2)n(C)c1=O [MSC]
pH (dissolved in 1.2 ml Propylene glycol and 0.6 ml 1N HCl): 4.2-4.8 | pH (dissolved in Anhydrous EtOH:PEG 400:1N HCl:H2O = 10:10:3:77 (v/v)): 4.2-4.8

Cn1c(=O)c2c(ncn2CCN2CCN(c3ccccc3Cl)CC2)n(C)c1=O.O=C(O)CC(O)(CC(=O)O)C(=O)O [Pulmodil-1, 7-[2-[4-(2-chlorobenzene)piperazinyl]ethyl]-1,3-dimethylxanthine.citric acid]
pH (dissolved in Anhydrous EtOH:PEG 400:H2O = 5:30:65 (v/v)): 4.5-4.8

Cl.Cn1c(=O)c2c(ncn2CCN2CCN(c3ccccc3Cl)CC2)n(C)c1=O [Pulmodil, 7-[2-[4-(2-chlorobenzene)piperazinyl]ethyl]-1,3-dimethylxanthine.HCl]
pH (dissolved in 5% Glucose): 5.8-6.4
